Source: PubChem BioAssay (National Center for Advancing Translational Sciences (NCATS))
Rango dissoc inh = inhibition of RanGTP-driven Rango-importin beta dissociation. Biochemical FRET Rango-importin beta, RanGTP-induced dissociation. O95149+P62826. Potency, µM (series often up to 46.1 µM), without a hit: at the top dose activity change, negative = inhibition. 340,000 tested, 0.071% active; also: potency is read from the fitted curve at half-maximal effect; % of control where 0% means no effect; nearly all actives have a fitted effect of over 45% in size
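Two FRET readings bracket the reaction: one 5 min after compound meets Rango–importin beta, another 45 min after RanGTP-RCC1 (0.6 uM Ran, 0.2 uM RCC1, 2 mM GTP) is added. Only the second defines inhibition.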
Akt phos inh = blocks phosphorylation of Akt | Neuro2A IGF-stimulated pAkt S473 HTRF, 20 min; active compounds read low | activity change, % for hits at 50 µM | 360,000 tested, 0.32% active; in the data active = activity change below about -80%; inconclusive = mostly about -51% to -80%; also: % is scaled to controls: 0 for no effect and ±100 for the full control effect
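Neuro2A cells (4,500/well, DMEM with 0.5% FBS) were treated with compound at a single 50 µM final concentration, stimulated with 6 nM IGF for 20 min at 37 °C, and lysed. Phospho-Akt Ser473 was read by HTRF as 665/615 ratio ×10^4.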
TSHR antag = human thyrotropin receptor antagonism. P16473. TSHR-expressing cells, TSH-stimulated cAMP HTRF, 2 h; active compounds read low. activity change, negative = inhibition, % at 11.5 µM. 330,000 tested, 0.2% active;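 active = activity change below a set negative limit, meaning inhibition stronger than a set level, cut at about -70% in these data; inconclusive = activity change between two set negative limits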; also: % is scaled to controls: 0 for no effect and ±100 for the full control effect
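TSHR-expressing cells, 200/well, pre-treated with compound, then stimulated with EC80 TSH (4nM final) for 2 hours at 37 deg C. cAMP measured by competitive HTRF: anti-cAMP cryptate antibody in lysis buffer plus cAMP-d2, read after 30 minutes at room temperature.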
p53 reactivation = re-activators of mutant p53; H1299 p53-A138V BP100-luciferase reporter, luminescence, 24 h; Potency, µM (highest dose often 92.2 µM), for inactives: top-dose activity change, positive = activation, actives largely listed as activators; 320,000 tested, 0.063% active; active = well fitted activation curve with a large enough effect; inconclusive = small, poorly fitted or top-dose-only effect; inactive = no such curve, though single readings can be large or run the other way; also: potency is read from the fitted curve at half-maximal effect; % of control where 0% means no effect; nearly all actives have a fitted effect of over 45% in size
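H1299 (p53-null), stable ts p53-A138V + BP100-Luc; 1000 cells/well, Opti-MEM/10% FBS; cpd 4 pt, 1:5; 24 h, 37 deg C, 5% CO2; detection reagent 10 min RT; luminescence.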
Rango-impB inh = prevents formation of the Rango-importin beta complex; 340,000 tested, 0.031% active; Q14974; Potency, µM (titrated, usually from 92.2 µM), for inactives: at the top dose inhibition of complex formation; Rango CFP/YFP FRET sensor + importin beta, 45 min;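 also: potency is read from the fitted curve at half-maximal effect; 0% = DMSO wells and 100% = buffer wells lacking importin beta; nearly all actives have a fitted effect of over 15% in size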
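FRET biosensor (snurportin 1 IBB flanked by EYFP and cerulean), 50 nM, with compound 5 min, then 0.125 microM importin beta in PBS, 1 mM DTT, 0.02% Tween-20, 0.1% BSA. CFP/YFP ratio read after 45 min at room temperature; pre-read flags interference.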
* = called active by the depositor; i = inactive; ? = inconclusive; · = not tested or not shown. Compounds with a hit are over-represented: about 0.62% of the library has one in this group of screens. Unless noted, calls follow the shape of the full dose curve.

item	mol	p53 reactivation	Rango-impB inh	TSHR antag
1	COC(=O)C[C@H]1C=C[C@H](NC(=O)c2cccc(F)c2)[C@@H](CO)O1	·	·	·
2	CCOC(=O)c1cc2c(C(F)(F)F)cc(-c3cccnc3)nc2o1	-3%	-1%	1
3	CCC(=O)NC1=C(Cl)C(=O)C(NC(=O)CC)=C(Cl)C1=O	-13%	-3%	-86*
4	COc1ccc(F)cc1S(=O)(=O)NC1CC(C)(C)NC(C)(C)C1	1%	-1%	9
5	CCc1nc2ccc(C(=O)N3CCN(C(C)=O)CC3)cn2c1N(C)C(=O)c1cccc(OC)c1	·	·	·
6	O=C(CN1CCCCC1)NC(=O)NC1CCCC1	-8%	3%	-25
7	O=C(NC1CCCCC1)NC1CCN(CC(=O)N2CCOCC2)CC1	3%	4%	4
8	CC(C)OCCCn1c(=O)c2ccccc2n2c(CCC(=O)NC3CCN(Cc4ccccc4)CC3)nnc12	-4%	2%	-125*
9	CC(C)OCCCn1c(=O)c2ccccc2n2c(CCC(=O)O)nnc12	-2%	5%	5
10	O=C(O)c1ccc(N2C(=O)CC(N3CCC(c4nc5ccccc5[nH]4)CC3)C2=O)cc1 (configuration not stated)	1%	-1%	0

item	Akt phos inh	Rango dissoc inh
1	i	·
2	-112%*	9%
3	i	16%
4	-112%*	5%
5	i	·
6	i	1%
7	-107%*	-1%
8	i	11%
9	i	-8%
10	i	-7%

Remaining list, next part:
item	mol	p53 reactivation	Rango-impB inh	TSHR antag
11	CC1(C)c2[nH]c3ccccc3c2C[C@H]2C(=O)N(Cc3ccccc3)C(=O)N21	·	2%	·
12	CC1(C)c2[nH]c3ccccc3c2C[C@@H]2C(=O)N(Cc3ccccc3)C(=O)N21	·	?	·
13	CC(C)C1NC2(C(=O)c3ccccc3C2=O)C2C(=O)N(c3ccc(F)cc3)C(=O)C12 (configuration not stated)	11%	?	3
14	O=C1C2C3C=CC(CC3)C2C(=O)N1c1ccc(F)cc1 (configuration not stated)	·	-1%	-6
15	Cc1cccc(Nc2nn3c(=O)c4ccccc4nc3s2)c1	?	2%	10
16	O=C(CSc1nc2ccccc2o1)Nc1ccc(N2CCOCC2)cc1	6%	0%	0
17	O=C(COC(=O)c1cc(Cl)ccc1O)NNC(=O)c1ccccc1F	-5%	-1%	15
18	O=C(c1ccccc1)c1ccc(O)cc1O	7%	58µM*	3
19	COc1ccc(CCNC(=O)c2c(O)c3ccccc3[nH]c2=O)cc1	9%	1%	5
20	Brc1ccc(-c2nnc3sc(CN4CCC5(CC4)OCCO5)cn23)cc1	-10%	4%	18

item	Akt phos inh	Rango dissoc inh
11	·	-22%
12	·	21µM*
13	-120%*	?
14	i	1%
15	-102%*	-16%
16	-94%*	2%
17	i	2%
18	i	10%
19	i	7%
20	-102%*	-25%

(more compounds)
item	mol	p53 reactivation	Rango-impB inh	TSHR antag
21	Brc1ccc(-c2nnc3sc(CN4CCc5ccccc5C4)cn23)cc1	·	5%	·
22	COc1ccc(NC(=S)N2CCCN(Cc3cccc(Cl)c3)C2)cc1	7%	3%	16
23	COc1cccc(NC(=S)N2CCCN(Cc3ccc(F)cc3)C2)c1	0%	-3%	-104*
24	Cn1c(N)c(C(=O)COC(=O)C2CCC(C(C)(C)C)CC2)c(=O)n(C)c1=O (configuration not stated)	1%	2%	7
25	CCCc1cc(=O)n2nc(N3CCC(C(=O)NCc4ccc(C)o4)CC3)sc2n1	-3%	-4%	44
26	COc1ccc(NC2CCCN(C(=O)CCN3CCOCC3)C2)cc1 (configuration not stated)	-3%	2%	2
27	Cc1cc(NC(=O)c2cccc(S(=O)(=O)N3CCCCC3)c2)no1	0%	1%	9
28	Cc1ccc(CNC(=O)CCNC(=O)N2CCn3c2nc2ccccc23)cc1	1%	-6%	-111*
29	Cc1ccc(CNC(=O)CCCCCNC(=O)N2CCn3c2nc2ccccc23)cc1	21%	-3%	-36
30	Cc1ccc(NC(=O)Cn2ncc3c([nH]c4ccccc43)c2=O)cc1Cl	4%	-7%	-70*

item	Akt phos inh	Rango dissoc inh
21	i	49%
22	i	-18%
23	i	-1%
24	-108%*	?
25	i	1%
26	i	-10%
27	i	7%
28	·	19%
29	i	-3%
30	i	0%

Single records (already shown):
`Cc1ccc(CNC(=O)CCNC(=O)N2CCn3c2nc2ccccc23)cc1` as listed: p53 reactivation = 1%; Rango-impB inh = -6%; TSHR antag = -111*; Akt phos inh = ·; Rango dissoc inh = 19%
`Cc1ccc(CNC(=O)CCCCCNC(=O)N2CCn3c2nc2ccccc23)cc1` as listed: p53 reactivation = 21%; Rango-impB inh = -3%; TSHR antag = -36; Akt phos inh = i; Rango dissoc inh = -3%

(more compounds)
item	mol	p53 reactivation	Rango-impB inh	TSHR antag
31	Cc1ccc(S(=O)(=O)n2c3ccc(Cl)cc3c3nc(C)sc32)cc1	?	-1%	18
32	COc1ccc(S(=O)(=O)N2CCC(C(=O)NCCN3CCOCC3)CC2)cc1	6%	4%	23
33	COC(=O)c1ccc(CNC(=O)COC(=O)/C=C/c2cccc(OC)c2)cc1	·	·	·
34	COC(=O)c1ccc(CNC(=O)COC(=O)/C=C/c2ccc(O)c(OC)c2)cc1	-3%	?	-11
35	CC1C(c2ccccc2)N(C)C(c2ccccc2)C(C)C1(O)C#Cc1ccccc1 (configuration not stated)	6%	2%	18
36	O=C(CSc1nc2nc[nH]c2c(=O)[nH]1)NC1CCCCC1	-3%	5%	-1
37	Nc1nc2nc[nH]c2c(=O)[nH]1	2%	-2%	-71*
38	CCCSC1=C(C#N)C(c2cccs2)C(C(=O)Nc2ccccc2)=C(C)N1 (configuration not stated)	17%	-2%	-79*
39	O=C(O)Cc1c(-c2ccccc2Cl)c2cc(Br)ccc2[nH]c1=O	0%	-1%	-6
40	O=C(CSc1nnc(-c2ccc3c(c2)OCO3)o1)Nc1ncc(Cl)cc1Cl	5%	-3%	-9

item	Akt phos inh	Rango dissoc inh
31	i	45%
32	i	-11%
33	i	·
34	i	18µM*
35	i	11%
36	i	-9%
37	i	4%
38	i	18%
39	i	3%
40	i	-9%

Next section
item	mol	p53 reactivation	Rango-impB inh	TSHR antag
41	Cc1ccc(S(=O)(=O)N2C3CC(c4ccccc4)N(S(=O)(=O)c4ccccc4Cl)CC3C(=O)C[C@H]2c2ccccc2)cc1 (some centres not stated)	·	·	·
42	CCC(=O)Nc1sc2c(c1C(=O)OC)CCN(Cc1ccccc1)C2	8%	?	0
43	CNC(=S)N1C2CCCC1CC(NC(=O)c1ccc(F)cc1)C2 (configuration not stated)	6%	-2%	-7
44	O=C(Nc1nc2ccccc2[nH]1)C1CC(=O)N(c2ccc3c(c2)OCCO3)C1 (configuration not stated)	-3%	0%	1
45	CCOC(=O)c1nnn(-c2nonc2N)c1-c1ccc(OCC)cc1	0%	0%	-6
46	O=[N+]([O-])c1ccc(N=Nc2ccc(O)cc2O)cc1	?	1%	-74*
47	CCOc1ccc(S(=O)(=O)N(C)CC(=O)NCc2ccccn2)cc1	0%	3%	4
48	CN(Cc1ccccc1)S(=O)(=O)c1ccc(OCC(=O)NCc2ccccn2)cc1	-4%	-3%	-104*

item	Akt phos inh	Rango dissoc inh
41	i	·
42	i	41µM*
43	i	0%
44	-112%*	-4%
45	-112%*	22%
46	i	-10%
47	i	17%
48	i	-9%
